According to US6426068B1, “Therapeutic uses of heterologous superoxide dismutase (HSD), and method for selecting said HSD” (Fractales Biotech, priority 1998, dated 2002):

Tested on: human macrophages
Assay: TNF-α production by human macrophages with β-amyloid or MPTP
Conditions: FIGS. 12 and 13

HuSOD: recombinant human Cu/Zn SOD, homologous comparator
effect on β-amyloid- and MPTP-induced TNF-α production and apoptosis of macrophages: has no or few effects
